Data from patent US8946224B2, “Substituted [1,2,4]triazolo[4,3-A]pyrazines for medicaments and pharmaceutical compositions” (Redx Pharma Limited, priority 2010, dated 2015).

Sequences of proteins named here, by UniProt entry; tags and fusion partners are left off.
UniProt P27338, whole entry: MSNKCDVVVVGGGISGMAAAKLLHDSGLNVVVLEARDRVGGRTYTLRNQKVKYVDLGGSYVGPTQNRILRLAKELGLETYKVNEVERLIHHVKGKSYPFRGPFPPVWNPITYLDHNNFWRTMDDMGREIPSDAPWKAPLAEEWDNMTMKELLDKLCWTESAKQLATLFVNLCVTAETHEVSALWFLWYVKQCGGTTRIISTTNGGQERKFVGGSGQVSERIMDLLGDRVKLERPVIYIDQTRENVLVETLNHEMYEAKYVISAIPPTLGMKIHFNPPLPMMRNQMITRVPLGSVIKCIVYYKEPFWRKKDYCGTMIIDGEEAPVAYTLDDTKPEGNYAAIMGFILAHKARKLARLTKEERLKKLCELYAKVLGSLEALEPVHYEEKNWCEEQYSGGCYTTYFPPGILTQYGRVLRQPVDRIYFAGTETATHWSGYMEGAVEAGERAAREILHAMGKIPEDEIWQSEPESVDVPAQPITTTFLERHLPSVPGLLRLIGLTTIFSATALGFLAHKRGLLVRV

Biological target: recombinant human MAO-B (Homo sapiens, UniProt P27338)
Experiment: MAO-B inhibition, kynuramine substrate, LC-MS/MS of 4-hydroxyquinoline (Example 99)
Assay type: biochemical

With `N[C@@H]1C[C@H]1c1ccccc1` (racemic) [Tranylcypromine, tranylcypromine, reference compound] the “Mean % Activity Remaining (n = 2)” value was 0%.
